# Test results: patent US20130316985A1, “GPR35 Ligands And Uses Thereof” (CORNING INCORPORATED, priority 2012, published 2013)
# Amino acid sequences for entries named in this document (tags omitted). A change or cut given only in a name is not applied to a line headed by its entry.
# UniProt Q9HC97: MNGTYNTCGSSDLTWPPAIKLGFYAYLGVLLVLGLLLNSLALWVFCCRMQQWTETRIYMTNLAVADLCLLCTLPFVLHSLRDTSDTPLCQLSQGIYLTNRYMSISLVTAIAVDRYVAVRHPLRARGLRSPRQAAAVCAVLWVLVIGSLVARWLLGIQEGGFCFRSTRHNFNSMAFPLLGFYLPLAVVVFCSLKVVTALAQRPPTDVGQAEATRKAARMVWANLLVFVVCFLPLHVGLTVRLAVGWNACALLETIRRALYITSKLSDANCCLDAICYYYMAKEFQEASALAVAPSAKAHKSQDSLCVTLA
# Legend:
# GPR35 [1] = biological target: T1, GPR35 (Homo sapiens, UniProt Q9HC97); assay: Tango β-arrestin translocation gene reporter assay in U2OS-GPR35-bla cells; type: cell-based; settings: for efficacy (Tango, normalized to maximal response of zaprinast) / β-arrestin translocation (Tango) signal (in words): U2OS-GPR35-bla; for efficacy (Tango, normalized to maximal response of zaprinast): zaprinast maximal response in same plate = 100%; for Efficacy Tango: maximal response normalized to the zaprinast maximal response; for EC50: read-out: Potency EC50, Tango; for β-arrestin translocation (Tango) signal (in words): 2,3-DNP up to 1 mM, 3,4-DNP at 1 mM
# GPR35 [2] = biological target: T1, GPR35; assay: DMR agonism assay in native HT-29 cells (Epic optical biosensor); settings: for Efficacy DMR: maximal DMR response in HT-29 (2,5-DNP: amplitude at 50 min); for EC50: HT-29 cells
# GPR35 [3] = biological target: T1, GPR35; assay: DMR antagonist assay: ML-145 pretreatment, then agonist at fixed dose, HT-29 cells; settings: ML-145 at different doses 10 min before agonist at fixed dose
# [4] = U2OS-GPR35-bla cells, β-arrestin translocation, mean ± s.d.
# [5] = read-out: Potency EC50, DMR, maximal DMR amplitudes within 15 min poststimulation (2,5-DNP: amplitudes at 50 min), mean ± s.d., n=4
SMILES,"efficacy (Tango, normalized to maximal response of zaprinast) (GPR35 [1]) [%]",Efficacy Tango (GPR35 [1]),EC50 (GPR35 [1]; [4]),Efficacy DMR (GPR35 [2]) [pm],EC50 (GPR35 [2]; [5]) [nM],"EC50 (GPR35 [2]; read-out: EC50 (DMR), values printed in nM in the text) [nM]",β-arrestin translocation (Tango) signal (in words) (GPR35 [1]),inhibition of the agonist-induced DMR by ML-145 (in words) (GPR35 [3]),DMR signal in HT-29 cells (in words) (GPR35 [2]; agonism mode),"Potency EC50, Tango (GPR35 [1]; [4])"
O=[N+]([O-])c1cc([N+](=O)[O-])c(Cl)c(Cl)c1O,32,32 ± 4 % zaprinast,24.2 µM,195 ± 11,1390,–,–,–,–,–
O=[N+]([O-])c1cc(C(=C(Cl)Cl)c2cc([N+](=O)[O-])c(O)c([N+](=O)[O-])c2)cc([N+](=O)[O-])c1O,104,104 ± 6 % zaprinast,2.12 µM,210 ± 11,–,6,–,–,–,–
O=[N+]([O-])c1cccc([N+](=O)[O-])c1O,34,34 ± 4 % zaprinast,76.6 µM and 76 µM,288 ± 12,18200,–,–,–,–,–
Cc1cc([N+](=O)[O-])c(O)c([N+](=O)[O-])c1,83,83 ± 5 % zaprinast,36.4 µM,235 ± 13,5270,–,–,–,–,–
O=[N+]([O-])c1ccc(O)cc1[N+](=O)[O-],–,>6 % zaprinast,> 500 µM,178 ± 12,112000,–,little activity,partially inhibited,–,–
O=[N+]([O-])c1cc(Cl)c(O)c([N+](=O)[O-])c1,26,26 ± 2 % zaprinast,41.7 µM,217 ± 15,5450,–,–,–,–,–
Cc1cc([N+](=O)[O-])cc([N+](=O)[O-])c1O,37,37 ± 2 % zaprinast,81.1 µM,229 ± 14,6910,–,–,–,–,–
CC(C)(c1cc([N+](=O)[O-])c(O)c([N+](=O)[O-])c1)c1cc([N+](=O)[O-])c(O)c([N+](=O)[O-])c1,72,72 ± 5 % zaprinast,29.2 µM,195 ± 12,2350,–,–,–,–,–
O=[N+]([O-])c1ccc([N+](=O)[O-])c(O)c1,15,15 ± 1 % zaprinast,331 µM,269 ± 15,52600,–,–,partially inhibited,slowly increased DMR signal,–
O=[N+]([O-])c1cccc(O)c1[N+](=O)[O-],–,inactive,–,192 ± 13,58500,–,inactive,partially inhibited,–,inactive

# Values joined by “and” are separate entries in the source; they are usually repeats but may differ in a detail not shown here. Equal entries are not always repeated.
